Source: US10695406B2, “Modulation of cellular stress using a B-cell oxidative and/or endoplasmic reticulum stress inhibitor and a targeting agent” (THE UNIVERSITY OF QUEENSLAND, priority 2014, dated 2020)

Tested on: MIN6N8 murine β-cells
Assay: ER stress (ERAI reporter of Xbp1-splicing / Xbp1 splicing) in MIN6N8 β-cells
Format: cell-based
Conditions: 50 ng/mL cytokines, 24 hour
Description: MIN6N8 cells are maintained in line with standard protocols. Cells are transfected with either the ERAI reporter plasmid (F-XBP1ΔDBD-Venus), or the ATF6-GFP plasmid (ADGENE), using LIPFECTAMINE 2000 according to the manufacturer's instructions.
On induction of ER stress, splicing of […] mRNA by IRE1a results in the translation of Venus, but not an active form of XBP1. Fluorescence was measured (excitation: 485 nm; emission: 520 nm) using the POLARstar Omega plate reader and cells were treated 48 h after transfection. The results are normalized with Gapdh expression as fold of vehicle-treated control (Con) cells.
Activation of ATF6 was assessed as follows: the area in pixels per square millimeter co-stained ATF6 and DAPI (blue and green), and total ATF6 staining (green) was determined in 5 fields of view for each section (n=6 for each condition) using IMAGEJ software version 1.45s. Data are presented as the percentage of ATF6 and DAPI co-fluorescence to the total ATF6 fluorescence. Phosphorylation of Ser-51 of eiF2 α was determined by an AlphaScreen assay as per the manufacturer's instructions (PERKIN-ELMER). […]
MIN6N8 cells were exposed to a panel of cytokines to determine the effect of each cytokine on ER stress. ER stress was measured using the above-described method. […]

B1: IFN-β: ER stress-inducing cytokine (protein, UniProt P01574 22-187, looked up)
Interferon beta: MSYNLLGFLQRSSNFQCQKLLWQLNGRLEYCLKDRMNFDIPEEIKQLQQFQKEDAALTIYEMLQNIFAIFRQDSSSTGWNETIVENLLANVYHQINHLKTVLEEKLEKEDFTRGKLMSSLHLKRYYGRILHYLKAKEYSHCAWTIVRVEILRNFYFINRLTGYLRN
induction of ER stress (ERAI reporter of Xbp1-splicing): lower stress response
